Assays:
[1] = system: MOLP-8 human multiple myeloma cell line; assay: MOLP8 Caspase-Glo 3/7 apoptosis induction assay; settings: read-out: MOLP8 Caspase-Glo AC50; MOLP-8 cells, 2 hours at 37° C.; 30 μM highest conc.; averaged over all runs on all batches
Text: MCL-1 is a regulator of apoptosis and is highly over-expressed in tumor cells that escape cell death. The assay evaluates the cellular potency of small-molecule compounds targeting regulators of the apoptosis pathway, primarily MCL-1, Bfl-1, Bcl-2, and other proteins of the Bcl-2 family. Protein-protein inhibitors disrupting the interaction of anti-apoptotic regulators with BH3-domain proteins initiate apoptosis.
The Caspase-Glo® 3/7 Assay is a luminescent assay that measures caspase-3 and -7 activities in purified enzyme preparations or cultures of adherent or suspension cells. The assay provides a proluminescent caspase-3/7 substrate, which contains the tetrapeptide sequence DEVD. This substrate is cleaved to release aminoluciferin, a substrate of luciferase used in the production of light. […]
Cell cultures were maintained between 0.2 and 2.0×10^6 cells/mL. […] The cells were counted and diluted as needed. […]
Compounds were delivered in assay-ready plates (Proxiplate) and stored at −20° C.
Assays always include 1 reference compound plate containing reference compounds. […] The plates were then sealed and measured after 30 minutes.
The activity of a test compound was calculated as percent change in apoptosis induction as follows: […]

Protein sequences, listed by entry. Tags and fused reporters are not part of them.
UniProt Q07820, whole entry: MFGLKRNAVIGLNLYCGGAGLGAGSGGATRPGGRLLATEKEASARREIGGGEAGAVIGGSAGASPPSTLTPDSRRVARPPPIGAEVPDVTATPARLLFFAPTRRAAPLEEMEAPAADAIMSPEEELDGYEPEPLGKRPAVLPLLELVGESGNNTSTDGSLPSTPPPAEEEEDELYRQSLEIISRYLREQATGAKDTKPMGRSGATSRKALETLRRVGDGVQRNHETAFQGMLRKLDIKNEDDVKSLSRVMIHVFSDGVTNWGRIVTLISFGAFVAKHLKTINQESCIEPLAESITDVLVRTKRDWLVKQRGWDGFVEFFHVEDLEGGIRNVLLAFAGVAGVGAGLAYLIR

[2] = target: Myeloid Cell Leukemia 1 (Mcl-1) (Homo sapiens, UniProt Q07820); assay: Terbium labeled Mcl-1 HTRF binding assay with Cy5-labeled BIM BH3 peptide; settings: read-out: Tb-MCL1 Ki, Ki=IC50/(1+[L]/Kd), [L]=8 nM, Kd=10 nM, 60 min incubation at room temperature
Text: Terbium labeled Myeloid Cell Leukemia 1 (Mcl-1) homogeneous time-resolved fluorescence (HTRF) binding assay utilizing the BIM BH3 peptide (H2N-(C/Cy5Mal) WIAQELRRIGDEFN-OH) as the binding partner for Mcl-1.
This assay evaluated inhibition of the BH3 domain: Mcl-1 interaction by measuring the displacement of Cy5-labeled BIM BH3 peptide (H2N—(C/Cy5Mal) WIAQELRRIGDEFN-OH) in the HTRF assay format. […]
The TR-FRET signal was read on an BMG PHERAStar FSX MicroPlate Reader at room temperature using the HTRF optic module (HTRF: excitation: 337 nm, light source: laser, emission A: 665 nm, emission B: 620 nm, integration start: 60 μs, integration time: 400 μs).
The BMG PHERAStar FSX MicroPlate Reader was used to measure fluorescence intensity at two emission wavelengths—665 nm and 620 nm—and report relative fluorescence units (RFU) for both emissions, as well as a ratio of the emissions (665 nm/620 nm)*10,000. […]
Representative compounds of the present invention were tested according to the procedure as described above, with results as listed in the Table below (n.d. means not determined).

SMILES: Cn1nc2cc1CSc1cc(c3ccccc3c1)OCCCc1c(C(=O)O)n(C)c3c(c(Cl)ccc13)-c1c(cnn1C)CSC2 (single isomer, unassigned) [Compound 6]
- AC50 [1]: 10.2 µM
- Ki [2]: 0.00954 µM
